This assay has as its target 5-HT3 (Rattus norvegicus, UniProt P35563). Put plainly: [3H]zacopride binding to rat small-bowel muscularis membranes (Test B). The note with it: read-out: KD of radioligand (saturation curve, one site model), tested as the radiolabelled form.

Chains of the proteins cited; added tags and fusions are not shown. Residues count along the entry.
UniProt P35563, 24-483 limits assumed: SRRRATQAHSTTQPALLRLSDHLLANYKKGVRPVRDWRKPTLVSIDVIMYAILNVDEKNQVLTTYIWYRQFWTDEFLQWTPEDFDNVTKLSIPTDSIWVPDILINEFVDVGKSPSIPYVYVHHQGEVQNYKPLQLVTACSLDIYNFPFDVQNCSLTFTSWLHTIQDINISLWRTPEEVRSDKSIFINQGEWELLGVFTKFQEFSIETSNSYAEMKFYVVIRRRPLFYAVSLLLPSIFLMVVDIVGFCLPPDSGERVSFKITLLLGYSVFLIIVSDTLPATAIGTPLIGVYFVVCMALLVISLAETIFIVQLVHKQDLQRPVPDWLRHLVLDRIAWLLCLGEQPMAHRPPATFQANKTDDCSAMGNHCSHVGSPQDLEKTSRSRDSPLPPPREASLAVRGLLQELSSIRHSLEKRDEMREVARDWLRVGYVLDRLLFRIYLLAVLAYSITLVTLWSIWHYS

pKd: −log10 of the molar value.

Take `COc1cc(N)c(Cl)cc1C(=O)NC1CN2CCC1CC2` (stereo not shown): the pKd is 9.15.

For the origin of these results see patent US20040259909A1, “Treatment of fibromyalgia syndrome” (priority 2001, published 2004).
